# Experimental data taken from paper PMC12169613 (2025).
# Chains of the proteins cited; added tags and fusions are not shown. Lines headed by an entry give the natural chain unless they say otherwise; changes in a name come on top.
# UniProt P46091: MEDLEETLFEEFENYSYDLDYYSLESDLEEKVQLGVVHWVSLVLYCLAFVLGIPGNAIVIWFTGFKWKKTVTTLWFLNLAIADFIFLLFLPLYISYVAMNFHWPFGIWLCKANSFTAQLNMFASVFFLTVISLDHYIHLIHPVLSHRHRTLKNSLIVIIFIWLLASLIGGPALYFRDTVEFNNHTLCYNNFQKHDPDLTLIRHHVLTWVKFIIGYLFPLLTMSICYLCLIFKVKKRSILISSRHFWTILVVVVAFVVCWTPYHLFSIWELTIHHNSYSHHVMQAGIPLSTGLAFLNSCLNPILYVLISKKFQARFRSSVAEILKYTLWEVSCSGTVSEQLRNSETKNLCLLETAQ
# Molecular target: Nluc-GPR1 (Homo sapiens, UniProt P46091)
# Experiment: cell-based
compound,measurement,value
"Cc1ccc(S(=O)(=O)c2c[nH]c(SCC(=O)Nc3ccc(C(F)(F)F)cc3)nc2=O)cc1Cl [Compound 16, 2-{[5-(3-Chloro-4-methylbenzenesulfonyl)-4-oxo-1,4-dihydropyrimidin-2-yl]sulfanyl}-N-[4-(trifluoromethyl)phenyl]acetamide]",pKi,< 6.00

# pKi: −log10 of the molar value.
